Measured values: patent US9844584B2, “Composition for preventing or treating sepsis” (priority 2012, dated 2017)

System: rats with LPS induced sepsis
Type: in vivo, Sprague-Dawley rat
Method: In this experiment, after causing the inflammation associated with sepsis in Sprague-Dawley rat administered with the test substance, and then the PEP 1 blood nitric oxide (NO), and cytokines were measured.
Used Sprague-Dawley rat was a specific pathogen-free SPF rats which was obtained from Orient Bio (Gyeonggi-do, Republic of Korea Gapyeong mokdongri Buk-myeon).
8.5 weeks old, among 100 male rats with a body weight less than 250 g±20%, observations of seven days, 96 healthy males (mean 9.5 weeks, mean body weight (g) of ±20% or less) became targets of experiment which was carried out.
Divide the 48 rats in all four groups were administered the PEP 1 and/or LPS for each group.
All routes of administration were intravenous administration.
Specifically, the exemplary formulations and PEP 1 prepared in Example 2/or the LPS was administered by intravenous injection formulation.
Both times were administered once.
The dose was administered by calculating 2 mL/kg on the basis of the measured weight before administration to the last
Dosage of each group was carried out as in the following Table.
First, PEP 1 for all animal and/or blood sample was collected before administration of LPS on the day before by 0.8 mL.
All subjects were bled on the following day for the first administration of LPS administered according to the above table, LPS after 30 minutes from the time of administration, PEP 1 dose administration was performed for the subject group.
After completion of the administration of LPS administered every 75 minutes and 255 minutes from the time (i.e., PEP 1 from the time of administration of each 45 minutes and 195 minutes) at each blood sample was 0.8 mL.
With respect to the sampling of blood was used for analyzing cytokines.
TNF-α, IL-1b and IL-6 concentrations were measured which were the main indicator of cytokines in sepsis.

CC[C@H](C)[C@H](NC(=O)[C@H](Cc1ccccc1)NC(=O)[C@H](CCCNC(=N)N)NC(=O)[C@H](CC(C)C)NC(=O)[C@H](CCCNC(=N)N)NC(=O)[C@H](CO)NC(=O)[C@@H](NC(=O)[C@H](CC(C)C)NC(=O)[C@H](CC(C)C)NC(=O)[C@H](C)NC(=O)[C@@H]1CCCN1C(=O)[C@H](CCCNC(=N)N)NC(=O)[C@H](C)NC(=O)[C@@H](N)CCC(=O)O)[C@@H](C)O)C(=O)N1CCC[C@H]1C(=O)N[C@@H](CCCCN)C(=O)O [PEP 1]
concentration of TNF-α in the blood (LPS 0.5 mg/kg i.v., PEP 1 1.5 mg/kg i.v. single dose 30 minutes after LPS, blood 195 minutes after PEP 1, vs LPS alone, FIG. 1): significantly reduced
concentration of IL6 in the blood (LPS 0.5 mg/kg i.v., PEP 1 1.5 mg/kg i.v. single dose 30 minutes after LPS, blood 195 minutes after PEP 1, vs LPS alone, FIG. 2): significantly reduced
concentration of IL1b in the blood (LPS 0.5 mg/kg i.v., PEP 1 1.5 mg/kg i.v. single dose 30 minutes after LPS, blood 195 minutes after PEP 1, vs LPS alone, FIG. 3): significantly reduced
survival of rats (single dose of 1.5 mg/kg, intravenous): all rats were found to be alive
